# Apparent affinities of Ab-14 variants for a coronavirus HR2 peptide

Target peptide (SARS-CoV-2 spike, HR2 region): PDVDLGDISGINAS

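Phage display of a naive human antibody library on the peptide gave the parent. This is the validation round: designs drawn from the data on random variants, tested in the same kind of assay. Group labels follow the data file (Ctrl: baseline library sampled from a position-specific scoring matrix, with some repeated check sequences; En: ensemble of fine-tuned language models; HC: hill climbing; Gen: genetic algorithm; Gibbs: Gibbs sampling; a sequence that several methods proposed may carry one label only). The assay is AlphaSeq: two haploid yeast populations carry antibody and antigen on their surface. Mating (16 h, 30 °C) was followed by selection of diploids and sequencing of their barcodes. Each replicate has its own calibration line, from reference interactions of the BCL2 family. Each pool was mated in six replicate cultures.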

Ab-14 is the parent antibody, in scFv form: VH, then the linker GGGGSGGGGSGGGGS, then VL. The light chain is unchanged in all variants.
VH: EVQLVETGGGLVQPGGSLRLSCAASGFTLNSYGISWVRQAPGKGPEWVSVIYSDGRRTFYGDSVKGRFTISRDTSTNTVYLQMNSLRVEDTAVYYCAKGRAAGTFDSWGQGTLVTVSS
VL: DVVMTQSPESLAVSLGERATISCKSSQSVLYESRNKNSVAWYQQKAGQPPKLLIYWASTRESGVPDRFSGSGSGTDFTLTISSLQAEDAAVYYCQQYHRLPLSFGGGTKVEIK

Each variant is given by its three heavy chain CDRs, as the data file delimits them; those of the parent are GFTLNSYGIS, VIYSDGRRTFYGDSVK, GRAAGTFDS.
This list holds designs with more than six substitutions.
Scale: log10 of Kd in nM, estimated from mating counts; low values are strong binders.
"n.d." means that the variant was in the library but no mating with the target was seen in that replicate; the authors take this as a sign of poor binding, and no number exists.

CDR-H1,CDR-H2,CDR-H3,group,"replicates, log10 nM",empty controls
GFDLNEYGIS,VIYADGRRTFYTDSFK,GEIAGTFDQ,En_HC,0.13 / 0.07 / -0.09 / 0.00 / -0.11 / -0.03,0 of 18
GENLEEYGIS,VIYADGMREQYSDSVK,GRQGGFFVV,En_Gibbs,n.d. / n.d. / n.d. / n.d. / n.d. / n.d.,1 of 18 (3.32)
GTELNSYGIS,VIYSDGRRTSYADSVK,DRPMGTFDS,Ctrl,n.d. / n.d. / n.d. / n.d. / n.d. / n.d.,0 of 18
GFDLNEYGIS,VIYADGRRTFYSDSVK,GNVAGTFDV,En_Gen,-1.31 / -1.22 / -1.49 / -1.24 / -1.34 / -1.39,0 of 18
GFDLEDYGIS,VIYADGRRTQYADSVK,GEEAGTFDL,En_HC,0.02 / 0.77 / 0.10 / 0.04 / 0.42 / 0.33,0 of 18
GFDLNEYGIS,VIYADGSRTAYSDSVK,GENAGTFDQ,En_Gen,-0.08 / 0.07 / -0.11 / -0.26 / -0.24 / 0.10,1 of 18 (1.42)
GFDLNEYGIS,VIYADGRRTFYTDSVK,GQLAGTFDD,En_HC,-0.80 / -0.49 / -0.37 / -0.58 / -0.84 / -0.70,0 of 18
GFDLDEYGIS,VIYADGRRTFYSDSVK,GTTAGTFDV,En_HC,-1.01 / -1.27 / -1.35 / -1.41 / -1.44 / -1.87,0 of 18
GFDLDEYGIS,VIYADGRRTAYADSVK,GEVAGTFDQ,En_Gen,-0.35 / -0.79 / -0.59 / -0.64 / -0.48 / 0.10,0 of 18
GFDLNEYGIS,VIYADGIRTFYADSVK,GNIAGTFII,En_HC,0.92 / 0.14 / n.d. / 0.39 / 0.49 / 0.58,0 of 18
GFDLDEYGIS,VIYADGKRTVYADSVK,GEVAGTFDV,En_Gen,0.25 / -0.55 / -0.40 / 0.01 / -0.58 / -0.04,0 of 18
GFDLNEYGIS,VIYADGKRTAYSDSVK,GENAGTFDM,En_Gen,0.23 / -0.22 / -0.39 / -0.48 / -0.11 / 0.02,0 of 18
GFDLNEYGIS,VIYADGVRTAYSDSVK,GQNAGTFDM,En_Gen,-0.24 / -0.65 / -0.23 / -0.60 / -0.38 / -0.47,0 of 18
GFDLEEMGVS,VIYADGIRFAYAQKVK,GQAAGAFDL,En_Gibbs,n.d. / n.d. / n.d. / n.d. / n.d. / n.d.,0 of 18
GFDLNEYGIS,VIYADGMRTAYADSVK,GQNAGTFDI,En_Gen,0.20 / -0.44 / -0.29 / 0.13 / -0.21 / -0.44,0 of 18
GFDLNEYGIS,VIYADGQRTYYADSVK,GNEAGTFDV,En_Gen,-0.31 / -0.53 / -0.59 / -0.60 / -0.28 / -0.37,0 of 18
GFDLNEYGIS,VIYADGRRTFYADSVK,GEAAGTFLM,En_HC,0.55 / 0.78 / 1.08 / 0.02 / 0.35 / 0.29,0 of 18
GFDLNEYGIS,VIYADGKRTVYADSVK,GEVAGTFDV,En_Gen,-0.13 / -0.87 / -0.35 / -0.76 / -0.32 / -0.48,0 of 18
GFDLNEYGIS,VIYADGRRTFYTDSVK,GGNAGTFDV,En_HC,-0.50 / -0.31 / -0.90 / -1.01 / -0.64 / -0.98,0 of 18
GFDLNEYGIS,VIYADGRRTSYKDSVK,GEAAGTFDV,En_HC,-0.13 / -0.09 / -0.05 / -0.48 / -0.09 / 0.12,1 of 18 (1.38)
GFSFDEYGIS,VIYADGKRSFYANTVK,GNKDMAFDI,En_Gibbs,n.d. / n.d. / n.d. / n.d. / 3.49 / n.d.,1 of 18 (1.92)
GFNLDEYGVS,VIYADGIRCTYADAVK,GKHGGAFFV,En_Gibbs,n.d. / n.d. / n.d. / n.d. / n.d. / n.d.,0 of 18
GFDLNEYGIS,VIYADGKRTAYSDSVK,GNVAGTFDE,En_Gen,0.00 / -0.28 / -0.70 / -0.60 / -0.10 / -0.32,0 of 18
GFDLNEYGIS,VIYADGKRTFYADSVK,GQAAGTFDL,En_HC,-0.42 / -0.42 / -0.37 / -0.65 / -0.28 / -0.27,0 of 18
GFDLDEYGIS,VIYADGMRTFYADSVK,GTNAGTFDS,En_HC,-0.51 / -0.71 / -0.31 / -0.61 / -0.63 / -0.35,0 of 18
GFDLNEYGIS,VIYADGRRTQYIDSVK,GEAAGTFDA,En_HC,-0.29 / -0.18 / 0.18 / 0.56 / -0.05 / 0.99,0 of 18
GFSIDEYGIS,VIYADGVRTAVDPSVK,GQMAAFFDK,En_Gibbs,n.d. / n.d. / n.d. / n.d. / n.d. / n.d.,1 of 18 (1.76)
GFDLDEYGIS,VIYADGMRTFYADSVK,GSNAGTFDV,En_Gen,-1.00 / -1.48 / -1.80 / -1.97 / -1.75 / -1.18,0 of 18
GFDLMEYGVS,VIYADGQRQYYANKVK,GEISASFLI,En_Gibbs,n.d. / n.d. / n.d. / n.d. / n.d. / n.d.,0 of 18
GFDLNEYGIS,VIYADGRRTFYSDSVK,GEAGGTFDL,En_HC,0.66 / -0.40 / -0.25 / 0.25 / -0.13 / -0.09,0 of 18
GFDLNEYGIS,VIYADGKRTAYADNVK,GQVAGTFDL,En_Gen,-0.30 / -1.81 / -1.96 / -2.37 / -1.54 / -2.03,0 of 18
GFNLDEEGIS,VIYADGIRTAYQDSVK,GQNVATFNV,En_Gibbs,n.d. / n.d. / n.d. / n.d. / n.d. / n.d.,0 of 18
GFDLNEYGIS,VIYADGMRTAYIDSVK,GNTAGTFDI,En_Gen,-0.31 / -0.35 / -0.57 / -0.69 / -0.64 / -0.35,1 of 18 (2.40)
GFDLNEYGIS,VIYADGRRTFYSDSVK,GEAGGTFDE,En_HC,0.53 / n.d. / 0.30 / -0.19 / 0.73 / 0.26,0 of 18

5 of these entries, quoted again:

CDR-H1,CDR-H2,CDR-H3,group,"replicates, log10 nM",empty controls
GTELNSYGIS,VIYSDGRRTSYADSVK,DRPMGTFDS,Ctrl,n.d. / n.d. / n.d. / n.d. / n.d. / n.d.,0 of 18
GFDLNEYGIS,VIYADGSRTAYSDSVK,GENAGTFDQ,En_Gen,-0.08 / 0.07 / -0.11 / -0.26 / -0.24 / 0.10,1 of 18 (1.42)
GFSIDEYGIS,VIYADGVRTAVDPSVK,GQMAAFFDK,En_Gibbs,n.d. / n.d. / n.d. / n.d. / n.d. / n.d.,1 of 18 (1.76)
GFNLDEYGVS,VIYADGIRCTYADAVK,GKHGGAFFV,En_Gibbs,n.d. / n.d. / n.d. / n.d. / n.d. / n.d.,0 of 18
GFDLNEYGIS,VIYADGKRTFYADSVK,GQAAGTFDL,En_HC,-0.42 / -0.42 / -0.37 / -0.65 / -0.28 / -0.27,0 of 18

A sequence measured in both rounds can read differently, since the two assays cover different ranges.
Three control strains display no target. For all heavy chain designs, 1% of the pairings with them gave a signal, with a median of 2.08 and one signal in twenty below 0.84, so weak values seen in few replicates may be background. Also given: how often the same scFv was detected with the empty control strains, with their mean in brackets.
The parent sequence was in this pool as ten entries: three were never detected, three once, and four in most replicates, with averages from 0.34 to 2.37.
The authors' rule: three or more of the six replicates give a measured affinity, fewer mean a poor binder.

Data: MIT Lincoln Laboratory AlphaSeq set, Li et al. 2023, doi:10.1038/s41467-023-39022-2, as distributed in FLAb.